According to PubChem BioAssay AID1377 (University of Pittsburgh Molecular Library Screening Center, 2008):
The list shows a part of the results, in another mix than the full data. Calls of active or inactive are those of the source.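 The calls were made as follows: active = activation, scaled between plate controls, above about 75% (limit read from the data); inactive = activation under that limit.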

Test: rescue of L929 cells from zVAD death – primary screen (AID 1377);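 also: 0% = zVAD with DMSO and 100% = DMSO alone without zVAD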
Details: L929 zVAD necroptosis rescue, ATP luminescence, 24 h, at 10 µM, stronger effect = higher value; with zVAD 60 µM unless noted

| Compound | viability rescue |
| --- | --- |
| CN(C)c1cccc(C(=O)NCC2(N3CCCCC3)CCCCC2)c1 | inactive: -0.000562% |
| COc1ccc(CN(CCCl)CCCl)cc1Cl | inactive: 0.03% |
| CC(C)c1ccc(NC2CCN(C(=O)OC(C)(C)C)CC2)cc1 | inactive: 5.9% |
| CN1CCC(Nc2cccc(F)c2)CC1 | inactive: 0.37% [with zVAD 20 µM] |
| O=C(NCC1(N2CCCCC2)CCCCC1)c1cccc([N+](=O)[O-])c1 | inactive: -0.03% |
| N#CC1(Nc2ccccc2)CCN(CCc2ccccc2)CC1 | inactive: 0.53% [with zVAD 20 µM] |
| CN1CCN(CCOC(=O)C(O)(c2ccccc2)c2ccccc2)CC1 | inactive: 0.44% |
| COc1ccc(NC2CCN(C(=O)OC(C)(C)C)CC2)cc1 | inactive: -0.82% |
| O=C(NCC1(N2CCOCC2)CCCCC1)c1cc(=O)[nH]c2ccccc12 | inactive: 0.08% |
| COc1ccc(NC2CCN(CCc3ccccc3)CC2)c(OC)c1 | inactive: 1.68% [with zVAD 20 µM] |
| CCOc1ccc(C)cc1CN(CCCl)CCCl | inactive: 1% |
| Cc1ccc(OCC(C)C)c(CN(CCCl)CCCl)c1 | inactive: -0.7% |
| COc1ccc(C(=O)NCC2(N3CCCCC3)CCCCC2)c(OC)c1OC | inactive: -0.18% |
| CCOC(=O)N1CCC(Nc2ccc(OC)cc2)CC1 | inactive: 1.73% |
| O=C(OC1CN2CCC1CC2)C1c2ccccc2Oc2ccccc21 (stereo not drawn) | inactive: -0.93% [with zVAD 20 µM] |
| N#CC1(Nc2ccccc2)CCN(Cc2ccccc2)CC1 | inactive: -0.02% |
| O=C(NCC1(N2CCOCC2)CCCCC1)c1cc2ccccc2o1 | inactive: 1.7% |
| CC(C)(C)OC(=O)N1CCC(Nc2ccccc2)CC1 | inactive: 2.8% |
| CCOc1ncccc1C(=O)NCC1(N2CCOCC2)CCCCC1 | inactive: 0.67% [with zVAD 20 µM] |
| CCCOc1ccc(C)cc1CN(CCCl)CCCl | inactive: -0.23% |
| CCC(CO)(C(=O)OC1CN2CCC1CC2)c1ccccc1 (stereo not drawn) | inactive: 0.06% [with zVAD 20 µM] |
| COc1cc(OC)cc(C(=O)NCC2(N3CCOCC3)CCCCC2)c1 | inactive: 1.41% |
| CN(C)c1ccc(C(=O)NCC2(N3CCCCC3)CCCCC2)cc1 | inactive: -0.46% |
| N#Cc1ccc(C(=O)NCC2(N3CCCCC3)CCCCC2)cc1 | inactive: -0.57% |
| c1ccc(CN2CCC(Nc3ccccc3)CC2)cc1 | inactive: -1.12% |
| COc1ccc(C(=O)NCC2(N3CCOCC3)CCCCC2)cc1OC | inactive: 10.4% |
| O=C(OC1CN2CCC1CC2)C1c2ccccc2C=Cc2ccccc21 (stereo not drawn) | inactive: -0.02% |
| N/C(=N\O)c1c(N)no[n+]1[O-] | inactive: -0.07% [with zVAD 20 µM] |
